Molecular target: Plasma kallikrein (Homo sapiens, UniProt P03952)
Type: cell-free

Chains of the proteins cited; added tags and fusions are not shown. Residues count along the entry.
UniProt P03952, 20-390 limits assumed: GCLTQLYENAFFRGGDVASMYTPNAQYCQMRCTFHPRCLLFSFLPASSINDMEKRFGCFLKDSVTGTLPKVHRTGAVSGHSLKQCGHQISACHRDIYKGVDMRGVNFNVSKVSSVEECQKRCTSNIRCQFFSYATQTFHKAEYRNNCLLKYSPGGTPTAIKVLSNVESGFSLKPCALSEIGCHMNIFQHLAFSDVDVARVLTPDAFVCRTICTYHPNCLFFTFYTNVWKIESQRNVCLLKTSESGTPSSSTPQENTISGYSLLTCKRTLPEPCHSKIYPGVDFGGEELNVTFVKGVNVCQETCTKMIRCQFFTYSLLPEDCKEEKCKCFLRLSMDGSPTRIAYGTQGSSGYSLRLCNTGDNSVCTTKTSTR
UniProt P03952, 391-638 limits assumed: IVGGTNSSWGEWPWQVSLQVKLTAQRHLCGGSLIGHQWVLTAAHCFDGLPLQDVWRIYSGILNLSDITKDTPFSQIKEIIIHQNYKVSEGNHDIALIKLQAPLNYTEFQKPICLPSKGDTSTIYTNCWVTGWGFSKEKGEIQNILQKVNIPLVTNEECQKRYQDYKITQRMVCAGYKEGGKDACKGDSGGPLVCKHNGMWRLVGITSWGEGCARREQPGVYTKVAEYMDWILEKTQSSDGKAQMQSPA

Question: COCc1nn(Cc2ccc(Cn3ccccc3=O)cc2)cc1C(=O)NCc1c(Cl)ccc(OC)c1F was tested. Which IC50 did it give?
Answer: Its IC50 is 5.5 nM.

Source: ChEMBL document CHEMBL5108074 (J Med Chem, 2022)
